pEC50, pIC50: −log10 of the molar value.
What was measured:
rat MCH-1R = rat MCH-1R (Rattus norvegicus, UniProt P97639); assay: Aequorin bioluminescence functional assay, MCH-1R agonist activity
human MCH-2R [1] = molecular target: T1, human MCH-2R (Homo sapiens, UniProt Q969V1); assay: Aequorin bioluminescence functional assay, MCH-2R agonist activity
human MCH-1R = human MCH-1R (Homo sapiens, UniProt Q99705); assay: MCH-1R binding assay, inhibition of [125I]-human MCH binding to membranes
human MCH-2R [2] = molecular target: T1, human MCH-2R; assay: MCH-2R binding assay, inhibition of [125I]-human MCH binding to membranes; parameters: expressed in transfected cells; host or cells: 293-AEQ17 (aequorin-expressing HEK-293 reporter line); details: inhibition of [125I]-human MCH (Phe13, Tyr19) binding, cell membranes

Protein sequences, listed by entry. Tags and fused reporters are not part of them. Lines headed by an entry give the natural chain unless they say otherwise; changes in a name come on top.
UniProt P97639: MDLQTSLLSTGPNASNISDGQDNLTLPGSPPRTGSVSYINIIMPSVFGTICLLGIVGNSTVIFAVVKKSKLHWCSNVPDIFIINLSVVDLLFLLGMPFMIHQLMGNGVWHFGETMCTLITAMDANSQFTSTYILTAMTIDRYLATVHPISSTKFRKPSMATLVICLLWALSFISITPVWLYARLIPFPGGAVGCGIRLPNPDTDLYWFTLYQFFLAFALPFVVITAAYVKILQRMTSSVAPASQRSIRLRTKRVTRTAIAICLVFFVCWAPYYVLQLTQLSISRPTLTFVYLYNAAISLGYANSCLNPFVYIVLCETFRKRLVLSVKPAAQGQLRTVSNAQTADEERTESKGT
UniProt Q969V1: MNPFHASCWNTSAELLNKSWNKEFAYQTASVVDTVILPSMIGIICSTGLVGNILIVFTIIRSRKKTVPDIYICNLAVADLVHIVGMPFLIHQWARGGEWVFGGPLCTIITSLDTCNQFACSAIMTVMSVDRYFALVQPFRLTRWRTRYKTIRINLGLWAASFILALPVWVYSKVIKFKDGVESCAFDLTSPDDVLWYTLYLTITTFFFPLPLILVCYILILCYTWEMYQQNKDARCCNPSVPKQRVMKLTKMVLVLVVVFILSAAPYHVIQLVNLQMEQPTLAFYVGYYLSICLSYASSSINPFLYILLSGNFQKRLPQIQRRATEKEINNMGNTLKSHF
UniProt Q99705: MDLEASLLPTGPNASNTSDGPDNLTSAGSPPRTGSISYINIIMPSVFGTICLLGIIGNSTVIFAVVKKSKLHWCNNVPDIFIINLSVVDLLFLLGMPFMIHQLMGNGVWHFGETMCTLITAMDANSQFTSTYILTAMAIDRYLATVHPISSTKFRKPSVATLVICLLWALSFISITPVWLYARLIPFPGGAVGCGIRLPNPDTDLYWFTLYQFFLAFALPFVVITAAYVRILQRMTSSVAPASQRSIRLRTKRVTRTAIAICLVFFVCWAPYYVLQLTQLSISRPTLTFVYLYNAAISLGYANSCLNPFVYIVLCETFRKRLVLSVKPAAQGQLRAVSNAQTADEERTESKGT

pEC50 (rat MCH-1R) | MCH-1R Agonist Activation % (rat MCH-1R; 293-AEQ17 cells expressing rat MCH-1R) [%] | pEC50 (human MCH-2R [1]) | MCH-2R Agonist Activation % (human MCH-2R [1]; 293-AEQ17 cells expressing human MCH-2R) [%] | pIC50 (human MCH-1R) | pIC50 (human MCH-2R [2]) | Compound
< 5.00 | 3 | < 5.00 | 6 | 6.04 | – | CSCC[C@@H]1NC(=O)[C@@H](NC(=O)CCCCNC(=N)N)CSSC[C@@H](C(N)=O)NC(=O)CNC(=O)CNC(=O)[C@H](Cc2ccc(O)cc2)NC(=O)[C@H](C(C)C)NC(=O)[C@H](CCCNC(=N)N)NC(=O)CNC(=O)[C@H](CC(C)C)NC1=O [SEQ. ID. NO. 15]
< 5.00 | – | – | – | 7.77 | 5.52 | CSCC[C@@H]1NC(=O)[C@@H](NC(=O)CCCCNC(=N)N)CSSC[C@@H](C(N)=O)NC(=O)[C@H]2CC[C@H](CC2)NC(=O)[C@H]2CC[C@H](CC2)NC(=O)[C@H](Cc2ccc(O)cc2)NC(=O)[C@H](C(C)C)NC(=O)[C@H](CCCNC(=N)N)NC(=O)CNC(=O)[C@H](CC(C)C)NC1=O [SEQ. ID. NO. 29]
